Measured values taken from patent US10329256B2, “(Hetero)aryl cyclopropylamine compounds as LSD1 inhibitors” (Oryzon Genomics, S.A., priority 2011, dated 2019).
Counter-ions that a name gives are not always drawn.

System: THP-1 cells
Assay: cells
Type: cell-based
Conditions: Homo sapiens, THP-1, 96 h
Method: THP-1 were purchased from DSMZ GmbH (Deutsche Sammlung von Mikroorganismen und Zellkulturen) and cultured in RPMI 1640 medium containing 10% of fetal bovine serum.
Serial dilutions of the compounds were prepared in DMSO and then further diluted in complete medium to generate solutions of concentrations that are double of the final concentration at which the cells will be exposed. 1 ml of these 2× concentrated solutions was added to the cells.
Each treated sample was split in two. […] Samples were incubated in the dark at 4° C. for 30-60 minutes and washed three times in PBS buffer containing 1% fetal bovine serum.
EC50 values were calculated by non-linear regression analysis.

Compound	EC50 [nM]
c1ccc([C@H]2C[C@@H]2NCC2CCNCC2)cc1 (relative stereo) [Example 5, (Trans)-2-phenyl-N-(piperidin-4-ylmethyl)cyclopropanamine hydrochloride]	7.4
c1ccc([C@H]2C[C@@H]2NC2CC3(CCNCC3)C2)cc1 (relative stereo) [Example 15, N-((trans)-2-phenylcyclopropyl)-7-azaspiro[3.5]nonan-2-amine]	2.1
